Laboratory results from US5607691A, “Compositions and methods for enhanced drug delivery” (priority 1995, dated 1997).

Key:
[1] = format: in vitro ADME; details: human
Source text: Table 4 lists the serum half-lives for several model compounds and two representative pharmaceutical agent-chemical modifier complexes using an in vitro assay system described in the Experimental section below. Of course, the serum half-lives will vary in vivo depending upon the age and health condition of the patient. Each complex comprises a model compound or a pharmaceutical agent, a spacer group, and a chemical modifier. Many of the model compounds utilize 4-nitrophenyl(ethanol, propanol, or cyclohexanol) or 4-nitrophenylethylamine as the "model" pharmaceutical agent. A more complete listing of serum half-lives may be found in the Experimental section below.
General procedure for serum hydrolysis of pharmaceutical agent-modifier complexes
Stock solutions (6 mM) of the pharmaceutical agent-modifier complexes were prepared in ethanol (by vortexing, sonication or warming at 37° C. if necessary). If required for solubility, a drop of dimethylsulfoxide, dimethylformamide or methanol may be added. (Acetonitrile cannot be used because it deactivates the serum enzymes.)
HPLC separation methods were established for each study by dilution of the above stock solution (6 μl) in acetonitrile (1 ml) to give a 36 μM solution. Samples (10 μl) were injected onto a Nucleosil 5C8 (250×4 mmID) and guard column (11×4 mm ID) and eluted with a mobile phase of approximately 65% HPLC grade water and 35% of a solution of 0.1% trifluoroacetic acid in acetonitrile, the exact proportions being adjusted in each case to give optimum separation and run times.
Freshly defrosted human serum (3 ml, Sigma) was warmed at 37° C. for five minutes and then 60 μl of the agent-modifier complex stock solution was added with vortexing. […] The aliquots were added to 800 μl of 2% zinc sulfate solution in a 1.5 ml disposable microcentrifuge tube, vortexed immediately and centrifuged at 14,000 RPM for 3 minutes. The supernatants (10 μl) were then injected onto the HPLC and peak areas were used to determine the % remaining. Serum blanks were prepared similarly by addition of serum to the zinc sulfate solution followed by centrifugation, and time=0 samples were also prepared by adding serum to the zinc sulfate solution followed by addition of the complex and separation by centrifugation. The time=0 samples, as well as the original stock solutions, were also used to study the stability of the complex in the absence of enzyme. Half-lives were calculated using the equation
by plotting time (x) vs. ln % remaining (y) to obtain the slope (m) and the y intercept (b).

[2] = saturated sodium carbonate, room temperature, 10 minutes

Substance	Serum Half-life [1] [h]	conversion back to piroxicam [2]
digoxin-3'-(choline carbonate)-3'",4'"-cyclic carbonate, dibromide salt	22	–
digitoxin-4'"-(6-morpholino-hexanoate)	47	–
piroxicam-N,O-bis(choline chloride) carbonate ester [piroxicam bis(choline chloride) adduct]	–	total conversion back to piroxicam
digoxin-4'"(3'")-(6-trimethylaminohexanoyloxy-methyl ether iodide salt	10	–
digoxin-3"'-(choline carbonate)-3'",4'"-cyclic carbonate, dibromide salt	22	–
